These are literature values, as cited in patent US20210169883A1, “METHOD OF TREATING AGGRESSION WITH OREXIN RECEPTOR ANTAGONISTS” (Icahn School of Medicine at Mount Sinai, priority 2018, published 2021).

The conditions of the series: variety of patient populations; cited from earlier work.

The structures appear in SMILES notation.

With `Cc1cc(C)nc(N2CC3CN(C(=O)c4c(F)cccc4-n4nccn4)CC3C2)n1` (stereo not shown) [seltorexant], the “tolerability in patient populations” value is recorded as “well tolerated”.
